# Cyclic peptide permeability, from CycPeptMPDB

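Lipid, pH, incubation time, direction and concentration are not recorded in the data file. Other peptides of the study may be missing here. Entries at the database's floor value (log10 P of -10) are not listed.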

PAMPA is the parallel artificial membrane permeability assay, which has no cells and reads passive diffusion. Permeability is in 10^-6 cm/s, converted from the database's log10 values; higher is more permeable.

PAMPA (10^-6 cm/s)	compound
0.17	CC(=O)N[C@@H]1C(=O)N2CCC[C@H]2C(=O)N(C)[C@H](CC(C)C)C(=O)N[C@H](CC(C)C)C(=O)N[C@@H](CC(C)C)C(=O)N[C@@H](CC(C)C)C(=O)N(C)[C@@H](C)C(=O)N[C@@H](CC(C)C)C(=O)N2CCC[C@@H]2C(=O)O[C@@H]1C
1	CC(=O)N1CCC[C@H]1C(=O)N(C)[C@@H](CC(C)C)C(=O)N[C@@H]1C(=O)N[C@@H](CC(C)C)C(=O)N[C@H](CC(C)C)C(=O)N(C)[C@@H](CC(C)C)C(=O)N[C@@H](C)C(=O)N[C@@H](CC(C)C)C(=O)N2CCC[C@H]2C(=O)O[C@@H]1C
1.9	CC(=O)N1CCC[C@H]1C(=O)N[C@@H]1C(=O)N[C@H](CC(C)C)C(=O)N[C@H](CC(C)C)C(=O)N(C)[C@H](CC(C)C)C(=O)N[C@@H](CC(C)C)C(=O)N(C)[C@H](C)C(=O)N[C@@H](CC(C)C)C(=O)N2CCC[C@@H]2C(=O)O[C@@H]1C
2.3	CC(=O)N1CCC[C@@H]1C(=O)N(C)[C@@H](CC(C)C)C(=O)N[C@@H]1C(=O)N[C@H](CC(C)C)C(=O)N[C@H](CC(C)C)C(=O)N(C)[C@@H](CC(C)C)C(=O)N(C)[C@H](C)C(=O)N[C@H](CC(C)C)C(=O)N2CCC[C@H]2C(=O)O[C@@H]1C
0.79	CC(=O)N1CCC[C@@H]1C(=O)N(C)[C@H](CC(C)C)C(=O)N[C@@H]1C(=O)N[C@H](CC(C)C)C(=O)N(C)[C@H](CC(C)C)C(=O)N[C@@H](CC(C)C)C(=O)N[C@@H](C)C(=O)N[C@H](CC(C)C)C(=O)N2CCC[C@H]2C(=O)O[C@@H]1C
5.1	CC(=O)N1CCC[C@H]1C(=O)N(C)[C@H](CC(C)C)C(=O)N[C@@H]1C(=O)N[C@H](CC(C)C)C(=O)N(C)[C@@H](CC(C)C)C(=O)N(C)[C@H](CC(C)C)C(=O)N(C)[C@@H](C)C(=O)N[C@@H](CC(C)C)C(=O)N2CCC[C@H]2C(=O)O[C@@H]1C
5.8	CC(=O)N1CCC[C@H]1C(=O)N[C@@H]1C(=O)N[C@H](CC(C)C)C(=O)N[C@@H](CC(C)C)C(=O)N[C@H](CC(C)C)C(=O)N[C@H](CC(C)C)C(=O)N(C)[C@H](C)C(=O)N[C@@H](CC(C)C)C(=O)N2CCC[C@@H]2C(=O)O[C@@H]1C
3	CC(=O)N1CCC[C@H]1C(=O)N(C)[C@@H](CC(C)C)C(=O)N[C@@H]1C(=O)N[C@@H](CC(C)C)C(=O)N[C@@H](CC(C)C)C(=O)N[C@H](CC(C)C)C(=O)N(C)[C@@H](C)C(=O)N[C@@H](CC(C)C)C(=O)N2CCC[C@H]2C(=O)O[C@@H]1C
0.16	CC(=O)N1CCC[C@H]1C(=O)N(C)[C@@H](CC(C)C)C(=O)N[C@@H]1C(=O)N(C)[C@@H](CC(C)C)C(=O)N(C)[C@H](CC(C)C)C(=O)N[C@@H](CC(C)C)C(=O)N[C@@H](C)C(=O)N[C@@H](CC(C)C)C(=O)N2CCC[C@@H]2C(=O)O[C@@H]1C
3.2	CC(=O)N1CCC[C@H]1C(=O)N[C@@H]1C(=O)N[C@H](CC(C)C)C(=O)N(C)[C@H](CC(C)C)C(=O)N[C@H](CC(C)C)C(=O)N(C)[C@H](CC(C)C)C(=O)N(C)[C@@H](C)C(=O)N[C@@H](CC(C)C)C(=O)N2CCC[C@@H]2C(=O)O[C@@H]1C
2.6	CC(=O)N1CCC[C@@H]1C(=O)N(C)[C@@H](CC(C)C)C(=O)N[C@@H]1C(=O)N[C@H](CC(C)C)C(=O)N[C@H](CC(C)C)C(=O)N(C)[C@@H](CC(C)C)C(=O)N(C)[C@@H](C)C(=O)N[C@@H](CC(C)C)C(=O)N2CCC[C@@H]2C(=O)O[C@@H]1C
7.8	CC(=O)N1CCC[C@H]1C(=O)N[C@@H]1C(=O)N[C@H](CC(C)C)C(=O)N[C@@H](CC(C)C)C(=O)N(C)[C@H](CC(C)C)C(=O)N(C)[C@@H](CC(C)C)C(=O)N(C)[C@@H](C)C(=O)N[C@@H](CC(C)C)C(=O)N2CCC[C@@H]2C(=O)O[C@@H]1C
4.8	CC(=O)N1CCC[C@H]1C(=O)N(C)[C@H](CC(C)C)C(=O)N[C@@H]1C(=O)N(C)[C@H](CC(C)C)C(=O)N(C)[C@@H](CC(C)C)C(=O)N(C)[C@H](CC(C)C)C(=O)N(C)[C@@H](C)C(=O)N[C@H](CC(C)C)C(=O)N2CCC[C@H]2C(=O)O[C@@H]1C
4.2	CC(=O)N1CCC[C@H]1C(=O)N(C)[C@H](CC(C)C)C(=O)N[C@@H]1C(=O)N(C)[C@@H](CC(C)C)C(=O)N(C)[C@H](CC(C)C)C(=O)N(C)[C@@H](CC(C)C)C(=O)N(C)[C@@H](C)C(=O)N[C@@H](CC(C)C)C(=O)N2CCC[C@H]2C(=O)O[C@@H]1C
6.8	CC(=O)N1CCC[C@H]1C(=O)N[C@@H]1C(=O)N[C@H](CC(C)C)C(=O)N[C@H](CC(C)C)C(=O)N[C@H](CC(C)C)C(=O)N[C@H](CC(C)C)C(=O)N(C)[C@@H](C)C(=O)N[C@@H](CC(C)C)C(=O)N2CCC[C@@H]2C(=O)O[C@@H]1C
0.079	CC(=O)N1CCC[C@@H]1C(=O)N(C)[C@H](CC(C)C)C(=O)N[C@@H]1C(=O)N(C)[C@@H](CC(C)C)C(=O)N(C)[C@@H](CC(C)C)C(=O)N[C@@H](CC(C)C)C(=O)N[C@@H](C)C(=O)N[C@H](CC(C)C)C(=O)N2CCC[C@H]2C(=O)O[C@@H]1C
8.7	CC(=O)N1CCC[C@@H]1C(=O)N(C)[C@H](CC(C)C)C(=O)N[C@@H]1C(=O)N(C)[C@@H](CC(C)C)C(=O)N(C)[C@H](CC(C)C)C(=O)N[C@@H](CC(C)C)C(=O)N(C)[C@@H](C)C(=O)N[C@H](CC(C)C)C(=O)N2CCC[C@@H]2C(=O)O[C@@H]1C
0.2	CC(=O)N1CCC[C@@H]1C(=O)N(C)[C@@H](CC(C)C)C(=O)N[C@@H]1C(=O)N[C@@H](CC(C)C)C(=O)N[C@H](CC(C)C)C(=O)N(C)[C@H](CC(C)C)C(=O)N(C)[C@H](C)C(=O)N[C@@H](CC(C)C)C(=O)N2CCC[C@@H]2C(=O)O[C@@H]1C
0.59	CC(=O)N1CCC[C@H]1C(=O)N(C)[C@@H](CC(C)C)C(=O)N[C@@H]1C(=O)N(C)[C@@H](CC(C)C)C(=O)N[C@H](CC(C)C)C(=O)N(C)[C@H](CC(C)C)C(=O)N[C@@H](C)C(=O)N[C@@H](CC(C)C)C(=O)N2CCC[C@H]2C(=O)O[C@@H]1C
0.56	CC(=O)N1CCC[C@H]1C(=O)N(C)[C@@H](CC(C)C)C(=O)N[C@@H]1C(=O)N(C)[C@H](CC(C)C)C(=O)N(C)[C@H](CC(C)C)C(=O)N[C@H](CC(C)C)C(=O)N(C)[C@H](C)C(=O)N[C@H](CC(C)C)C(=O)N2CCC[C@@H]2C(=O)O[C@@H]1C
5.4	CC(=O)N1CCC[C@@H]1C(=O)N(C)[C@@H](CC(C)C)C(=O)N[C@@H]1C(=O)N[C@@H](CC(C)C)C(=O)N(C)[C@@H](CC(C)C)C(=O)N[C@@H](CC(C)C)C(=O)N(C)[C@@H](C)C(=O)N[C@@H](CC(C)C)C(=O)N2CCC[C@@H]2C(=O)O[C@@H]1C

Again, the 2 entries with the lowest PAMPA:

| compound | PAMPA (10^-6 cm/s) |
|---|---|
| CC(=O)N1CCC[C@@H]1C(=O)N(C)[C@H](CC(C)C)C(=O)N[C@@H]1C(=O)N(C)[C@@H](CC(C)C)C(=O)N(C)[C@@H](CC(C)C)C(=O)N[C@@H](CC(C)C)C(=O)N[C@@H](C)C(=O)N[C@H](CC(C)C)C(=O)N2CCC[C@H]2C(=O)O[C@@H]1C | 0.079 |
| CC(=O)N1CCC[C@H]1C(=O)N(C)[C@@H](CC(C)C)C(=O)N[C@@H]1C(=O)N(C)[C@@H](CC(C)C)C(=O)N(C)[C@H](CC(C)C)C(=O)N[C@@H](CC(C)C)C(=O)N[C@@H](C)C(=O)N[C@@H](CC(C)C)C(=O)N2CCC[C@@H]2C(=O)O[C@@H]1C | 0.16 |

Values of Kelly et al. 2021, doi:10.1021/jacs.0c06115, as listed in CycPeptMPDB.